Values joined by “and” are separate entries in the source; they are usually repeats but may differ in a detail not shown here. Equal values may be shown once. The list shows a part of the results, in another mix than the full data. Records with an inconclusive call do not appear. Active and inactive are the calls of the source. Unless noted, calls follow the shape of the dose curve; as a rule, active = well fitted curve in the direction sought with a large enough effect in the repeat runs; inconclusive = weak or mixed curves; inactive = no such curve, though single readings can be large; an effect the other way counts as inactive or inconclusive.
Assays:
[1] = qHTS assay to identify small molecule antagonists of the androgen receptor (AR) signaling pathway - cell viability counter screen (AID 743033; also: nearly all actives have a fitted effect of over 45% in size); settings: AR-bla HEK293 viability, CellTiter-Glo luminescence, 16 h
[2] = target: Androgen receptor (Homo sapiens) (UniProt P10275); assay: qHTS assay to identify small molecule agonists of the androgen receptor (AR) signaling pathway (AID 743036; active = well fitted activation curve with a large enough effect in the signal ratio in the repeat runs, with a control signal flat, not every such curve was filed as active; the % refers to the signal ratio); settings: HEK293 AR-UAS-bla GripTite, beta-lactamase FRET ratio, 16 h; at 62.4 µM (top of the series) unless noted
[3] = target: Androgen receptor (Homo sapiens) (UniProt P10275); assay: qHTS assay to identify small molecule agonists of the androgen receptor (AR) signaling pathway using the MDA cell line (AID 743040; also: nearly all actives have a fitted effect of over 20% in size); settings: MDA-kb2 AR-luc cells, MMTV luciferase, 16 h, stronger effect = higher value; at 70.3 µM (top of the series) unless noted
[4] = qHTS assay to identify small molecule antagonists of the androgen receptor (AR) signaling pathway using the MDA cell line - cell viability counter screen (AID 743041; also: nearly all actives have a fitted effect of over 45% in size); settings: MDA-kb2 viability, CellTiter-Fluor, 16 h, cells co-treated with R1881 androgen agonist
Method in brief: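 qHTS viability read-out; MDA-kb2 AR-luc; R1881-stimulated; 16 h exposure at 37C, 0% CO2; CellTiter-Fluor, 30 min; fluorescence intensity.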

Sequences of proteins named here, by UniProt entry; tags and fusion partners are left off.
UniProt P10275, whole entry: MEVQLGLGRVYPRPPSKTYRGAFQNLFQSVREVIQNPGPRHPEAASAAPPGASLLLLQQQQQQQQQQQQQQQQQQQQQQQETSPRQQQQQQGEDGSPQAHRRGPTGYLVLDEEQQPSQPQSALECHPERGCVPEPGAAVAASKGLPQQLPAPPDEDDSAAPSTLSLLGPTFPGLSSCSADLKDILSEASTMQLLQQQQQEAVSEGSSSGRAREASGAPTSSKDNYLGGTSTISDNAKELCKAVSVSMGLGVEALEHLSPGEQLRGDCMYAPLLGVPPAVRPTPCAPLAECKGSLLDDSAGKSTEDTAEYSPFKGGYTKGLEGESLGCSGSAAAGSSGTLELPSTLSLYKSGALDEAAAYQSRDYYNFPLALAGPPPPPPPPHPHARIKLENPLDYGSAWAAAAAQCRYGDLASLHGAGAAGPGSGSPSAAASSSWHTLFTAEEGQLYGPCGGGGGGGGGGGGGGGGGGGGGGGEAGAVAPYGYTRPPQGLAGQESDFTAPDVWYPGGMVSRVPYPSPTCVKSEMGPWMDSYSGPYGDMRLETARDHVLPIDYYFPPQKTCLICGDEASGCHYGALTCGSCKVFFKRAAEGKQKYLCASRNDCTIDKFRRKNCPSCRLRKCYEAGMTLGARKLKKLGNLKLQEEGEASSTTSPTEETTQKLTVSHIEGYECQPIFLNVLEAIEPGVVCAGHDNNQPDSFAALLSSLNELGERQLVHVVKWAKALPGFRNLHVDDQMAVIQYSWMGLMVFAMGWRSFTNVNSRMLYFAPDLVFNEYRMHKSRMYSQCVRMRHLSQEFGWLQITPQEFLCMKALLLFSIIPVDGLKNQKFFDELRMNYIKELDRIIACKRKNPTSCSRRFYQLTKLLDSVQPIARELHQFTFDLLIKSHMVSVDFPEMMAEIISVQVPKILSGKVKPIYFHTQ
UniProt P03372, whole entry: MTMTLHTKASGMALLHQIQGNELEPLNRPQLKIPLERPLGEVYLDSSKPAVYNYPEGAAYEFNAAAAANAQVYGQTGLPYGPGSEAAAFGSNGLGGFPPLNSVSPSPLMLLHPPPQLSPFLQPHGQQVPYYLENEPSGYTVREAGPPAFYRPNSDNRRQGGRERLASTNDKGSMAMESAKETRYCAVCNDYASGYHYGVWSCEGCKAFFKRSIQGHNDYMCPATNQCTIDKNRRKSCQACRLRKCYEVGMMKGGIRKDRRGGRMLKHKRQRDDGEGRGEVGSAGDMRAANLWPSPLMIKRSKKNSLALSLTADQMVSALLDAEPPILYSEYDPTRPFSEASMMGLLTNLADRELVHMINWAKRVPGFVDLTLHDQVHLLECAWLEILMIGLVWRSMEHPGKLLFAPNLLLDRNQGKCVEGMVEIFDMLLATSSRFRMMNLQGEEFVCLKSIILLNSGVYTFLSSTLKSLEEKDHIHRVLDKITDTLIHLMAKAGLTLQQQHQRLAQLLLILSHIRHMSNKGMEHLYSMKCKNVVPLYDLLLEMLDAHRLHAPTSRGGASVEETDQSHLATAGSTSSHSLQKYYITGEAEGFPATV
UniProt P35869, whole entry: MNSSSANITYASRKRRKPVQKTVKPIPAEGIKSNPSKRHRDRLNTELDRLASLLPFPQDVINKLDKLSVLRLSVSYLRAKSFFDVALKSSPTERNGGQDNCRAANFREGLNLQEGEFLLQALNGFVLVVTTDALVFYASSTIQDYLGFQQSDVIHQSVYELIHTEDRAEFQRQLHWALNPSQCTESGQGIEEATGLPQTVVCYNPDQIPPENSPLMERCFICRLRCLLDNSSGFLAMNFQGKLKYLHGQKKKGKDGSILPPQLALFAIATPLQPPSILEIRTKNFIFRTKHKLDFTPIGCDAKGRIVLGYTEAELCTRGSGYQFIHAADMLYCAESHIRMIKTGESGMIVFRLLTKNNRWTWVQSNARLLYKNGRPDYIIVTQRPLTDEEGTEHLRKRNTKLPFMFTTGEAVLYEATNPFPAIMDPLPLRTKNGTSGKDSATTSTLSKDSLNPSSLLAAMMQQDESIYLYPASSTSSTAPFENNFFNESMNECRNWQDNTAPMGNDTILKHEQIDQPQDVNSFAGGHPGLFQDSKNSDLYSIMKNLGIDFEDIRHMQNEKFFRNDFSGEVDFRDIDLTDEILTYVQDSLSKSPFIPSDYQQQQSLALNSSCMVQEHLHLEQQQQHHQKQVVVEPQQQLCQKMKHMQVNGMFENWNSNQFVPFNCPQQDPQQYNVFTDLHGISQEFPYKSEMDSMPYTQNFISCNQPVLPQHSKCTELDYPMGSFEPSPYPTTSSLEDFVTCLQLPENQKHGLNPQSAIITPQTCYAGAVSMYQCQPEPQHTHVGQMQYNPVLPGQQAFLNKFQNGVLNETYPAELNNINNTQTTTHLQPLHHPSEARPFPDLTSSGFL
UniProt P11511, whole entry: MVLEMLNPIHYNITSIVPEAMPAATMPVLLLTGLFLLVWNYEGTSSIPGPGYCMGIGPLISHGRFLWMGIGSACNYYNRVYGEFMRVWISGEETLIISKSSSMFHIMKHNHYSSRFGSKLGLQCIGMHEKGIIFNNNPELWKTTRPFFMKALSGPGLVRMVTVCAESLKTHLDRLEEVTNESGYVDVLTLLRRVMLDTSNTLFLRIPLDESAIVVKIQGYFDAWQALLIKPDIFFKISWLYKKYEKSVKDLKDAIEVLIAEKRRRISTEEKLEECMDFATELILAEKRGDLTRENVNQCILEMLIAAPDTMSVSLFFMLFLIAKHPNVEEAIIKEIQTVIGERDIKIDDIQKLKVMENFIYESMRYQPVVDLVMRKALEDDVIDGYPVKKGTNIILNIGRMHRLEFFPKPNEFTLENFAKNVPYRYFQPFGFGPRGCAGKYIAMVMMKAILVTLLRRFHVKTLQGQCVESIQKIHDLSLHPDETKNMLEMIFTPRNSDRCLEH
UniProt P37231, whole entry: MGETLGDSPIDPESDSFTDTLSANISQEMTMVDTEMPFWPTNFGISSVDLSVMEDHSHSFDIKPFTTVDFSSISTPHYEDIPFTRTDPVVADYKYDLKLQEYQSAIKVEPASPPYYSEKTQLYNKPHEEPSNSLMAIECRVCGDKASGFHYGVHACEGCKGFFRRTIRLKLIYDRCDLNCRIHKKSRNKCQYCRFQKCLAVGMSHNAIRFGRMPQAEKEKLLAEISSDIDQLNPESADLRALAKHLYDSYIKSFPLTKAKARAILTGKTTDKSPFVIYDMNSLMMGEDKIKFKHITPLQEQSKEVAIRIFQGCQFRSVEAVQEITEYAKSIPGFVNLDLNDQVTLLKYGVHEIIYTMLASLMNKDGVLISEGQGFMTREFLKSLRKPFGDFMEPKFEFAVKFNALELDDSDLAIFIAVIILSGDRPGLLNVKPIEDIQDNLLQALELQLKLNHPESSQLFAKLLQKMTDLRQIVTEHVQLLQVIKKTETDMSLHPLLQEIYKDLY

[5] = qHTS assay to identify small molecule antagonists of the thyroid receptor (TR) signaling pathway - cell viability counter screen (AID 743064); also: nearly all actives have a fitted effect of over 50% in size
Method in brief: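 Rat GH3 pituitary tumor cells stably expressing two TR response elements driving luciferase were plated, rested 4 h, then dosed with library compounds and T3 (1 nM final). After 23.5 h at 37 °C, CellTiter-Fluor was added for 30 min and fluorescence recorded.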

[6] = test system: thyroid hormone receptor (rat, GH3 cells); assay: qHTS assay to identify small molecule agonists of the thyroid receptor (TR) signaling pathway (AID 743066; calls by dose curve); settings: GH3.TRE-Luc cells, TR agonist luciferase, 24 h
[7] = qHTS assay to identify small molecule antagonists of the estrogen receptor alpha (ER-alpha) signaling pathway - cell viability counter screen (AID 743074; calls by dose curve;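 also: HEK293 cells carrying ER-alpha-UAS-bla reporter stimulated with 17beta-estradiol; nearly all actives have a fitted effect of over 45% in size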); settings: ERalpha-bla HEK293 viability, CellTiter-Glo luminescence, 18 h
[8] = target: Estrogen receptor (Homo sapiens) (UniProt P03372); assay: qHTS assay to identify small molecule agonists of the estrogen receptor alpha (ER-alpha) signaling pathway (AID 743075; calls by dose curve;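 also: HEK293 GripTite cells with ER-alpha and UAS-driven beta-lactamase reporter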); settings: HEK293 ER-alpha-UAS-bla, beta-lactamase FRET ratio, 18 h
[9] = target: Estrogen receptor (Homo sapiens) (UniProt P03372); assay: qHTS assay to identify small molecule agonists of the estrogen receptor alpha (ER-alpha) signaling pathway using the BG1 cell line (AID 743079); also: nearly all actives have a fitted effect of over 20% in size
[10] = qHTS assay to identify aromatase inhibitors - cell viability counter screen (AID 743084); settings: MCF-7 aro ERE viability, CellTiter-Fluor, 24 h;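 also: cells stimulated with testosterone during compound exposure; nearly all actives have a fitted effect of over 55% in size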
[11] = target: Aryl hydrocarbon receptor (Homo sapiens) (UniProt P35869); assay: qHTS assay to identify small molecule that activate the aryl hydrocarbon receptor (AhR) signaling pathway (AID 743085);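 also: HG2L7.5c1 human HepG2 liver cells with stably integrated DRE-driven firefly reporter; nearly all actives have a fitted effect of over 15% in size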
[12] = qHTS assay to identify small molecule that activate the aryl hydrocarbon receptor (AhR) signaling pathway - cell viability counter screen (AID 743086);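 also: HepG2 liver cells carrying the AhR DRE luciferase reporter; nearly all actives have a fitted effect of over 45% in size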
Method in brief: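 HepG2-AhR-luc (HG2L7.5c1) cells, 4000/well, were preincubated 5 h at 37C, exposed to compound in qHTS format for 24 hr at 37C, then given CellTiter-Fluor for 30 min; viability was read as fluorescence in the reporter wells.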

[13] = qHTS assay for identifying genotoxic compounds that show differential cytotoxicity against isogenic chicken DT40 cell lines with known DNA damage response pathways - Rev3 mutant cell line (AID 743014); also: nearly all actives have a fitted effect of over 55% in size
[14] = target: Androgen receptor (Homo sapiens) (UniProt P10275); assay: qHTS assay to identify small molecule antagonists of the androgen receptor (AR) signaling pathway (AID 743035; active = well fitted inhibition curve with a large enough effect in the signal ratio in the repeat runs, not every such curve was filed as active; the % refers to the signal ratio); settings: HEK293 AR-UAS-bla, R1881-stimulated, beta-lactamase FRET, 16 h; at 58.5 µM (top of the series) unless noted
[15] = qHTS assay to identify small molecule antagonists of the estrogen receptor alpha (ER-alpha) signaling pathway using the BG1 cell line (AID 743080; calls by dose curve;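 also: BG1 cells stimulated with 17beta-estradiol alongside compound; nearly all actives have a fitted effect of over 25% in size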); settings: BG1Luc4E2 ERE-luciferase antagonist mode, luminescence
Method in brief: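 BG1-Luc-4E2 cells (endogenous full-length ER-alpha, 4xERE luciferase) hormone-starved 5 days in charcoal-stripped FBS, plated 4,000/well for 24 h, then compound plus 17beta-estradiol for 21.5 h at 37 C; ONE-Glo luminescence read.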

[16] = qHTS assay to identify small molecule antagonists of the estrogen receptor alpha (ER-alpha) signaling pathway using the BG1 cell line - cell viability counter screen (AID 743081)
[17] = target: Aromatase (Homo sapiens) (UniProt P11511); assay: qHTS assay to identify aromatase inhibitors (AID 743083); settings: MCF-7 aro ERE, testosterone-driven ERE luciferase, 24 h; also: nearly all actives have a fitted effect of over 55% in size
[18] = target: Peroxisome proliferator-activated receptor gamma (Homo sapiens) (UniProt P37231); assay: qHTS assay to identify small molecule agonists of the peroxisome proliferator-activated receptor gamma (PPARg) signaling pathway (AID 743094; active = well fitted activation curve with a large enough effect in the signal ratio in the repeat runs, not every such curve was filed as active; the % refers to the signal ratio); settings: HEK293H PPARg-UAS-bla, beta-lactamase FRET ratio, 17 h
Method in brief: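 Reporter activation was scored by fluorescence of cleaved LiveBLAzer B/G substrate (1 h, room temperature) in PPARg-bla HEK293H cells previously treated 17 h at 37C with DMSO-dissolved compounds.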

[19] = target: Androgen receptor (Homo sapiens) (UniProt P10275); assay: qHTS assay to identify small molecule antagonists of the androgen receptor (AR) signaling pathway using the MDA cell line (AID 743042; also: nearly all actives have a fitted effect of over 55% in size); settings: MDA-kb2 AR-luc, MMTV luciferase, R1881 antagonist, 16 h; at 70.3 µM (top of the series) unless noted
[20] = target: Peroxisome proliferator-activated receptor gamma (Homo sapiens) (UniProt P37231); assay: qHTS assay to identify small molecule antagonists of the peroxisome proliferator-activated receptor gamma (PPARg) signaling pathway (AID 743191; calls by dose curve; also: nearly all actives have a fitted effect of over 30% in size)
Method in brief: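 GeneBLAzer PPARg UAS-bla HEK293H cells carrying a UAS-driven beta-lactamase reporter were plated at 3000 cells/well, preincubated 5 h at 37C, then given compound for 17 h at 37C; LiveBLAzer B/G FRET substrate was read after 1 h at room temperature.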
% is scaled to controls: 0 for no effect and ±100 for the full control effect.

CCOP(=O)(CC)Oc1ccc([N+](=O)[O-])cc1 (stereo not drawn)
inactive: activity change, negative = cytotoxicity ([1]; at 58.5 µM (top of the series)) 1.02% | activation [2] 1.04% | activity change [3] -5.33% | viability change, negative = cytotoxic ([4]; at 70.3 µM (top of the series)) -2.7% | Potency [5] | activation ([6]; at 83.9 µM (top of the series)) 0.0893% | activity, negative = cytotoxicity ([7]; at 69.4 µM (top of the series)) -22% | activation ([8]; at 70.1 µM (top of the series)) 4.9% | Potency [9] | activity change, negative = cytotoxicity ([10]; at 70.3 µM (top of the series)) 2.24% | Potency [11] | Potency [12]

CN(C)CCS
inactive: Potency [13] | activity change, negative = inhibition [14] 5.69% | activation [2] -3.88% | activity change [3] 1.15% | Potency [5] | activation ([6]; at 83.9 µM (top of the series)) 1.47% | activity, negative = cytotoxicity ([7]; at 69.4 µM (top of the series)) 8.3% | activity change, negative = inhibition ([15]; at 70.3 µM (top of the series)) 1.11% | Potency [16] | activity, negative = inhibition ([17]; at 70.3 µM (top of the series)) 15.9% | activity change, negative = cytotoxicity ([10]; at 70.3 µM (top of the series)) 10.1% | Potency [11] | Potency [12] | activation ([18]; at 57 µM (top of the series)) 0.769%

O=[N+]([O-])OCC(CO[N+](=O)[O-])(CO[N+](=O)[O-])CO[N+](=O)[O-]
inactive: Potency [13] | activity change, negative = cytotoxicity ([1]; at 58.5 µM (top of the series)) -4.6% and 10.3% | activity change, negative = inhibition [14] 3.32% | activation [2] 8.68% and 0.29% | activity change [3] -3.6% and 0.609% | viability change, negative = cytotoxic ([4]; at 70.3 µM (top of the series)) -14.5% and 1.53% | activity change, negative = inhibition [19] -1.78% and 7.31% | Potency [5] | activation ([6]; at 83.9 µM (top of the series)) 0.12% and 0.175% | activity, negative = cytotoxicity ([7]; at 69.4 µM (top of the series)) 12.7% and 28.6% | activation ([8]; at 70.1 µM (top of the series)) 4.15% and 6.09% | Potency [9] | activity change, negative = inhibition ([15]; at 70.3 µM (top of the series)) -2.91% | Potency [16] | activity, negative = inhibition ([17]; at 70.3 µM (top of the series)) -11.6% and 14.4% | activity change, negative = cytotoxicity ([10]; at 70.3 µM (top of the series)) -4.68% and 3.53% | Potency [11] | Potency [12] | activation ([18]; at 57 µM (top of the series)) -2.9% | Potency [20]

COP(C)(=O)OC
inactive: Potency [13] | activity change, negative = cytotoxicity ([1]; at 58.5 µM (top of the series)) 1.81% | activity change, negative = cytotoxicity ([1]; at 78.9 µM (top of the series)) 0.228% | viability change, negative = cytotoxic ([4]; at 70.3 µM (top of the series)) -0.765% | viability change, negative = cytotoxic ([4]; at 95 µM (top of the series)) 4.78% | Potency [5] | activation ([6]; at 83.9 µM (top of the series)) 0.221% | activation ([6]; at 95.2 µM (top of the series)) -0.253% | activity, negative = cytotoxicity ([7]; at 79.1 µM (top of the series)) -3.94% | activation ([8]; at 70.1 µM (top of the series)) -1.63% | activation ([8]; at 79.1 µM (top of the series)) -1.63% | Potency [9] | activity change, negative = inhibition ([15]; at 70.3 µM (top of the series)) 18.5% | activity change, negative = inhibition ([15]; at 95 µM (top of the series)) -4.97% | Potency [16] | activity, negative = inhibition ([17]; at 70.3 µM (top of the series)) 17.8% | activity, negative = inhibition ([17]; at 95 µM (top of the series)) -0.0809% | activity change, negative = cytotoxicity ([10]; at 70.3 µM (top of the series)) 23.2% | activity change, negative = cytotoxicity ([10]; at 95 µM (top of the series)) 4.59% | Potency [11] | Potency [12] | activation ([18]; at 57 µM (top of the series)) -1.07% | activation ([18]; at 78.9 µM (top of the series)) 1.63% | Potency [20]

N=C(N)N[N+](=O)[O-]
inactive: activity change, negative = cytotoxicity ([1]; at 78.9 µM (top of the series)) 6.77% | activity change, negative = inhibition [14] 3.8% [at 78.9 µM] | activation [2] 0.285% [at 79.1 µM] | activity change [3] -0.399% [at 95 µM] | viability change, negative = cytotoxic ([4]; at 95 µM (top of the series)) -4.14% | activity change, negative = inhibition [19] -0.745% [at 95 µM] | Potency [5] | activation ([6]; at 95.2 µM (top of the series)) -0.466% | activity, negative = cytotoxicity ([7]; at 79.1 µM (top of the series)) 11.9% | activation ([8]; at 79.1 µM (top of the series)) -1.36% | Potency [9] | activity change, negative = inhibition ([15]; at 95 µM (top of the series)) -17.6% | Potency [16] | activity, negative = inhibition ([17]; at 95 µM (top of the series)) 3.4% | activity change, negative = cytotoxicity ([10]; at 95 µM (top of the series)) -10.9% | Potency [11] | Potency [12] | activation ([18]; at 78.9 µM (top of the series)) 4.52%
